Source: US20040152768A1, “NO-synthase inhibitors comprising ascorbyl 2-hexadecanoate” (SOCIETE L'OREAL , S.A., priority 2001, published 2004)

The chains behind the UniProt entries cited, without tags or fusion partners.
UniProt P35228, whole entry, species assumed: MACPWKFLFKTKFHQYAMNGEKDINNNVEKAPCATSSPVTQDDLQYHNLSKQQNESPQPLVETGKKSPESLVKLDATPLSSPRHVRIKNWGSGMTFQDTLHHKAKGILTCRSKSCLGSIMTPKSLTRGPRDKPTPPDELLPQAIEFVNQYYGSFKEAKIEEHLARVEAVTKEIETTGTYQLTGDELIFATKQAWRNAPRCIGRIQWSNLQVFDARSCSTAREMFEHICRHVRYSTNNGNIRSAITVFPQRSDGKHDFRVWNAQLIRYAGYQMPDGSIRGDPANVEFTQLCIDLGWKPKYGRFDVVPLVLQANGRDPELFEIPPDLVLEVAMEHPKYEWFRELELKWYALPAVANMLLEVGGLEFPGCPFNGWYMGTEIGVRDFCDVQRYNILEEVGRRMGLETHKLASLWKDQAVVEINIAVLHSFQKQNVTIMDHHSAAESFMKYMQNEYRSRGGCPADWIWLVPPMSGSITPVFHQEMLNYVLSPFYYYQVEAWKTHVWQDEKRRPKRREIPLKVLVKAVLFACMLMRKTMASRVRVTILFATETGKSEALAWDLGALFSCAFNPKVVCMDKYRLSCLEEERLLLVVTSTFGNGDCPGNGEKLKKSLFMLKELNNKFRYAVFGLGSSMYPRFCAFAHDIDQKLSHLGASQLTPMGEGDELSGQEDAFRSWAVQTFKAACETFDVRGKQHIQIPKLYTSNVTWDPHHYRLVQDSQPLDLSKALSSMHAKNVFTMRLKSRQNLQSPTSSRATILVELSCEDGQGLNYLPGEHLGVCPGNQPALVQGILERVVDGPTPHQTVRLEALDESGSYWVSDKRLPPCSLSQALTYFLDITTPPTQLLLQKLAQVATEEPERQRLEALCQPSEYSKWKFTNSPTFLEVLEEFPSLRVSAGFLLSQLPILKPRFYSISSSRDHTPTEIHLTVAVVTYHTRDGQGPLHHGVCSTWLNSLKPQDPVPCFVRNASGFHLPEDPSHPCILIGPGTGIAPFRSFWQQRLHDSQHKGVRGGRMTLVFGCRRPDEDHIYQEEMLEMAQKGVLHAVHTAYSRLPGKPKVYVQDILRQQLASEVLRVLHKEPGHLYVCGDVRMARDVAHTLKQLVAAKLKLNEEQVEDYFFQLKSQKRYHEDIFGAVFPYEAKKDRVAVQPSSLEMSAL

Biological target: T1, inducible NO-synthase (NO-synthase 2) (Homo sapiens, UniProt P35228)
T1 construct: positive control (induction of the enzyme): mixtures of interferon-(1000 U/ml) and of interleukin 1-(100 U/ml); endogenous in cells
Assay: Inhibition of inducible NO-synthase: nitrite/nitrate measured after induction with interferon and interleukin 1 (test of Heck et al.)
Type: cell-based
Details: test product or control at 200 μM, nitrites and nitrates, colorimetric assay
Procedure: The activity of ascorbyl 2-hexadecanoate on inducible NO-synthase was evaluated in the test described by Heck et al., (J. B. C., Vol. 267, No. 30, 21277-21280, Oct. 25, 1992). The object of this test is to show the reduction in the concentration of nitrate and nitrite, ultimately, after stimulating NO-synthase 2. The following controls were introduced into the tests: A: positive control (induction of the enzyme): mixtures of interferon-(1000 U/ml) and of interleukin 1-(100 U/ml); B: negative control (maximum inhibition): N^g-monomethyl-L-arginine (L form) at 200 μm; C: control of inhibition specificity: N^g-monomethyl-L-arginine (D form) at 200 μm. To determine the activity of the test product, the amount of stable NO reaction products (nitrites and nitrates) is measured using the “nitric colorimetric assay” kit marketed by Boehringer under the reference 1756.28. Ascorbyl 2-hexadecanoate was tested at concentrations of 20 μM, 100 μM and 200 μM in ethanol.

Row | SMILES | % Inhibition [%]
1 | CNC(=N)NCCC[C@H](N)C(=O)O [B, N^g-monomethyl-L-arginine, reference compound] | 100
2 | CNC(=N)NCCC[C@H](N)C(=O)O [C, N^g-monomethyl-L-arginine, reference compound] | 0
